Reference: patent US5232849A, “Bacteriocin from lactococcus lactis subspecies lactis” (Quest International Flavors & Food Ingredients Company …, priority 1992, dated 1993)

What was measured:
trypsin = test: Trypsin susceptibility of bacteriocin; type: physicochemical; details: for Titer after trypsin treatment: 20 hours at 40 °C
Description: (§1) Enzymatic Reactions. Trypsin and chymotrypsin susceptibility of crude and purified bacteriocin was explored. Enzymes were obtained from Sigma (St. Louis, Mo.) and were stored lyophilized at -20° C. until use. Enzymatic reactions were done in a 0.1M ammonium bicarbonate buffer, pH 7.8, containing 0.1 mM calcium chloride (Deutcher, M. P., Meth. Enzymol. 182:611-612 (1990)). Susceptibility was defined as inability of the bacteriocin to inhibit the growth of a lawn of indicator bacteria when applied to the surface of an agar plate containing the bacteria at a rate of 16 units activity in a volume of 5 μl.
(§2) Titer <200 is deemed sensitive to protease action; titer >200 is resistant.
Trypsin digestion was done by 20 hours incubation at 40° C. with 3200-6400 Aμ/ml bacteriocin concentration.

alpha-chymotrypsin = molecular target: T1, alpha-chymotrypsin (Bos taurus, UniProt P00766); test: Chymotrypsin susceptibility of bacteriocin; type: physicochemical; details: for Titer after chymotrypsin treatment: 2 hour at 40°
T1 construct: purchased Sigma (St. Louis, Mo.)
Description: as §1, §2
Chymotrypsin digestion was done by 2 hour incubation at 40° with 3200-6400 Au/ml bacteriocin concentration.

nisin [Nisin Pure]
sensitive (S) / resistant (R) to trypsin (trypsin; trypsin 1 ng/ml): R (titer >200 is resistant) | Titer after trypsin treatment (trypsin; trypsin 1 ng/ml): < 200 | sensitive (S) / resistant (R) to trypsin (trypsin; trypsin 10 ng/ml): S (Titer <200 is deemed sensitive to protease action) | Titer after trypsin treatment (trypsin; trypsin 10 ng/ml): < 200 | Titer after trypsin treatment (trypsin; trypsin 100 ng/ml): < 200 | Titer after trypsin treatment (trypsin; trypsin 1 μg/ml): < 200 | Titer after trypsin treatment (trypsin; trypsin 10 μg/ml): < 200 | Titer after trypsin treatment (trypsin; trypsin 100 μg/ml): < 200 | sensitive (S) / resistant (R) to trypsin (trypsin; trypsin 1 mg/ml): S (Titer <200 is deemed sensitive to protease action) | Titer after trypsin treatment (trypsin; trypsin 1 mg/ml, 3200-6400 AU/ml bacteriocin): < 200 | sensitive (S) / resistant (R) to chymotrypsin (alpha-chymotrypsin; chymotrypsin 1 μg/ml): R (titer >200 is resistant) | Titer after chymotrypsin treatment (alpha-chymotrypsin; chymotrypsin 1 μg/ml): > 200 | Titer after chymotrypsin treatment (alpha-chymotrypsin; chymotrypsin 10 μg/ml): > 200 | Titer after chymotrypsin treatment (alpha-chymotrypsin; chymotrypsin 100 μg/ml): > 200 | sensitive (S) / resistant (R) to chymotrypsin (alpha-chymotrypsin; chymotrypsin 1 mg/ml): R (titer >200 is resistant) | Titer after chymotrypsin treatment (alpha-chymotrypsin; chymotrypsin 1 mg/ml, 3200-6400 AU/ml bacteriocin): > 200
